# Measured affinities in a library of Ab-14 heavy chain variants

Values reported by Li et al. 2023, doi:10.1038/s41467-023-39022-2 (FLAb copy).

All variants were tested on one target, the spike HR2 peptide PDVDLGDISGINAS (SARS-CoV-2).

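This is the validation round: designs drawn from the data on random variants, tested in the same kind of assay. Several design methods are mixed in this list. AlphaSeq pools MATa yeast showing the antibodies with MATalpha yeast showing the peptide. Pairs that bind mate more often; barcode pairs of the diploids are counted by sequencing. A regression on co-assayed BCL2-family reference pairs converts the normalised counts of each replicate to an apparent Kd. There are six technical replicates.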

Ab-14 is the parent antibody, in scFv form: VH, then three GGGGS repeats, then VL. The light chain is unchanged in all variants.
VH: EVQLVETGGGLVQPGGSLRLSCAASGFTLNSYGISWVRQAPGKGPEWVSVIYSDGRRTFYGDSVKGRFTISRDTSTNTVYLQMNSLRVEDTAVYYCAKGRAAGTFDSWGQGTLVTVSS
VL: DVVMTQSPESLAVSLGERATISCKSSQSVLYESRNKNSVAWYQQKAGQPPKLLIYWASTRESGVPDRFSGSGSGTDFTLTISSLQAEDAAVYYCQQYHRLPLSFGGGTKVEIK

Changes read parent residue, position, new residue, counted from the first residue of the VH shown.
This list holds designs with at most six substitutions.
Affinities are written as log10 Kd with Kd in nM; a lower number is a better binder.
Averages over replicates are reported, and they cover detected replicates only.
"not detected" means that the variant was in the library but no mating with the target was seen in any replicate; the authors take this as a sign of poor binding, and no number exists.

| changes | mean, log10 nM | replicates with signal |
|---|---|---|
| T28S L29I G61S | 0.46 | 6 of 6 |
| S31D D54G G103L D106I | not detected | 0 of 6 |
| G26K T28D S31E F59M A101T | 0.05 | 6 of 6 |
| T28D G61A R100Q S107V | -0.11 | 6 of 6 |
| G99R A101Q | 2.08 | 1 of 6 |
| G26Y T28D G61K A101T | 1.11 | 2 of 6 |
| S31E S63R G103V S107M | not detected | 0 of 6 |
| T28N T58S G61A A101T | 0.30 | 6 of 6 |
| K65V R100K A102P | 1.79 | 4 of 6 |
| T28N A101E S107Q | -0.05 | 6 of 6 |
| S31D A101F | 1.72 | 6 of 6 |
| T28S G61A A101T | 0.10 | 6 of 6 |
| R100N A101T S107V | 0.19 | 6 of 6 |
| T28M G61A R100Q A101T | 0.58 | 6 of 6 |
| T28S S31D F59Q G61I | 0.81 | 6 of 6 |
| S63E S107P | not detected | 0 of 6 |
| T28D S31E S53A G61A R100N S107N | -0.01 | 6 of 6 |
| L29I G61S G99E | not detected | 0 of 6 |
| T28E G61S R100H S107N | 1.06 | 6 of 6 |
| N30D Y52D A101W F105A D106L | 2.09 | 1 of 6 |
| S31E G61S S63R R100E | 0.66 | 5 of 6 |
| T28S S31E A101F S107D | -0.24 | 6 of 6 |
| T28E G61R A101T | 1.04 | 6 of 6 |
| G26K T28D R100S A101T | 1.06 | 6 of 6 |
| S53A G61Q K65R R100K A101Y A102G | 1.03 | 6 of 6 |
| T28S G61S S63Q A101Q | 1.08 | 6 of 6 |
| T28E S53A A101M S107T | -0.20 | 6 of 6 |
| T28E S31E F59M A101N | -1.05 | 4 of 6 |
| S53A R100K D106K S107L | 1.56 | 2 of 6 |
| T28D A101V S107V | -0.33 | 6 of 6 |
| G26R S31E D106F | not detected | 0 of 6 |
| T28D R100K A101N S107G | 1.02 | 2 of 6 |
| T28G S31Q G61S A101Q | -0.09 | 6 of 6 |
| N30G T104Q D106E S107H | not detected | 0 of 6 |
| T28N S63P R100K A101Q | 1.13 | 3 of 6 |
| N30E S53A | 0.15 | 12 of 12 |
| G26M T28D A101E S107Q | 0.87 | 2 of 6 |
| T28S S31M S53A F105D | not detected | 0 of 6 |
| T28Q N30K S63N A101T | 1.83 | 5 of 6 |
| T28D R100Q A101T S107K | 0.57 | 6 of 6 |
| T28E S31E A101N S107D | 0.38 | 4 of 6 |
| T28A N30R R56E G61S T104F | 3.67 | 1 of 6 |
| T28E G61K R100Q A101T | 0.58 | 6 of 6 |
| T28E S31N A101Q | 0.65 | 6 of 6 |
| T28E S31E A101S | 1.87 | 6 of 6 |
| T28D G61I R100W A101T | 0.38 | 6 of 6 |
| T28S G61Q R100E S107T | 0.21 | 6 of 6 |
| T28S R100A A101T | 0.13 | 6 of 6 |
| T28S G61A R100E | 0.07 | 6 of 6 |

For reference, 3 entries of the list once more:

| changes | mean, log10 nM | replicates with signal |
|---|---|---|
| G26Y T28D G61K A101T | 1.11 | 2 of 6 |
| T28D S31E S53A G61A R100N S107N | -0.01 | 6 of 6 |
| T28E S53A A101M S107T | -0.20 | 6 of 6 |

The authors' rule: three or more of the six replicates give a measured affinity, fewer mean a poor binder.
The range of this assay differs from that of the first round, and the authors advise against merging the two.
Nonspecific signal, from three strains lacking the peptide, appeared in 1% of pairings of all heavy chain designs, centred on 2.08 (5% of these signals below 0.84); values are not corrected for it.
Where one sequence has several entries in the source, the replicates are pooled.
The parent sequence was in this pool as ten entries: three were never detected, three once, and four in most replicates, with averages from 0.34 to 2.37.